From BindingDB's records for doi:10.1021/cb700200w (Novartis, 2008)

Target: T1, Aurora kinase A (Homo sapiens, UniProt O14965)
T1 sequence (O14965 whole entry): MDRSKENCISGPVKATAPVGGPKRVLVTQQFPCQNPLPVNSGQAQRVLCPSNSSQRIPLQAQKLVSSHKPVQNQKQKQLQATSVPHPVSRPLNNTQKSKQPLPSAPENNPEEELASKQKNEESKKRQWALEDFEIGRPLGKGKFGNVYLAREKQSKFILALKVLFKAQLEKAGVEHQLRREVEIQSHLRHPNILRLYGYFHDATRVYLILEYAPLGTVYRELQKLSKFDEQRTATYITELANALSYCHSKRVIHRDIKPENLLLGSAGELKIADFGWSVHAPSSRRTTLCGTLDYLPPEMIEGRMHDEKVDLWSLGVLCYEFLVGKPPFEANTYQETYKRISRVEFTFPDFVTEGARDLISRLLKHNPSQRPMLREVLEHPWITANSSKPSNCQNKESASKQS
Experiment: Aurora Kinase SPA Assay
Conditions: pH 7; 22 °C
Experimental: The biochemical activity of compounds was determined by incubation with Aurora A and substrates in the presence ATP/[gamma-33P] ATP. After incubation, the reaction was stopped and the phosphorylated substrate was separated from nonincorporated radioactive ATP using SPA beads (Amersham Pharmacia Biotech), counted using TopCount (Packard) to measure substrate-incorporated phosphate.

- IC50: 140 nM
Compound: CNC(=O)c1ccc(Nc2ncc(Br)s2)cc1 [4-[(5-bromo-1,3-thiazol-2-yl)amino]-N-methylbenzamide]
